Reference: US8063043B2, “Salts of N-[6-cis-2,6-dimethylmorpholin-4-yl)pyridine-3-yl]-2-methyl-4′-(trifluoromethoxy)[1,1′-biphenyl]-3-carboxamide” (Novartis AG, priority 2008, dated 2011)

Experiment: Hygroscopicity, DVS sorption/desorption isotherms
Assay type: physicochemical
Settings: RH 85.0%, 25° C.

Cc1c(C(=O)Nc2ccc(N3C[C@@H](C)O[C@@H](C)C3)nc2)cccc1-c1ccc(OC(F)(F)F)cc1.O=S(=O)(O)O [Sulfate, mono]
DVS Sorp. Weight % chg.: 1.835%
